In PubChem BioAssay AID2129 (The Scripps Research Institute Molecular Screening Center, 2009) one finds inhibition data, which are given here for 24 molecules.

Amino acid sequences for entries named in this document (tags omitted).
UniProt Q07817, whole entry: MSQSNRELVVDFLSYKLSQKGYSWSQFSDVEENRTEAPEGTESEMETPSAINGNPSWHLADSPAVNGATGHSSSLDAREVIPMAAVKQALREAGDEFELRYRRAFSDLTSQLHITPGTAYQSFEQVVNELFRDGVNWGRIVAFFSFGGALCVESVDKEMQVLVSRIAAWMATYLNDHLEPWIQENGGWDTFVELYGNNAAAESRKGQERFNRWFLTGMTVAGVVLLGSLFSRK

Only a part is listed here, and it is no random draw. Some of these compounds have results that are not shown, active ones among them. The source made the active and inactive calls.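 The calls were made as follows: active = inhibition above the mean of all tested compounds plus 3 SD, cutoff set per campaign (cut at about 30% in these data); inactive = the rest.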

This assay addresses Bcl-2-like protein 1 (Homo sapiens) (UniProt Q07817). Put plainly: inhibitors of human Bcl-xL, primary screen, biochemical, fluorescence polarization, HTS (AID 2129).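 Also: 0% = DMSO wells and 100% = unlabeled Bim-BH3 peptide competitor; inhibitors lower millipolarization by displacing the labeled peptide.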 Conditions: GST-Bcl-xL / FITC-Bim BH3 peptide fluorescence polarization; at 10.9 µM; hits give high values. In general terms: Polarisation of emitted light reports the rotation of a fluorescent probe.
Broadly, the inhibition is the drop in the measured response relative to a control, in per cent. Consider `CN(C)C1(CNC(=O)c2ccc(Br)cc2)CCCCC1`, for which the inhibition was inactive: -1.13%.
The figure for `COc1cc(C(=O)NCC2(N(C)C)CCCCC2)c([N+](=O)[O-])cc1OC` is inactive: -0.6%; for `COc1cccc(C(=O)NCC2(N3CCCCC3)CCCCC2)c1` it is inactive: 5.2%; for `COc1ccc(Cl)cc1C(=O)NCC1(N(C)C)CCCCC1` it is inactive: 11.6%.
The figure for `O=C(NCC1(N2CCCCC2)CCCCC1)c1cccc(Cl)c1` is inactive: -1.74%; for `O=C(OC1CN2CCC1CC2)C(CO)(c1ccccc1)c1ccccc1` (centres undefined) it is inactive: 6.79%; for `COc1ccc(Br)c(C(=O)NCC2(N3CCCCC3)CCCCC2)c1` it is inactive: 3.61%.
To `CC(C)Oc1ccc(C(=O)NCC2(N(C)C)CCCCC2)cc1` belongs inactive: 2.53%; to `CN(C)c1cccc(C(=O)NCC2(N(C)C)CCCCC2)c1`, inactive: 1.08%; to `O=C(NCC1(N2CCCCC2)CCCCC1)c1cc([N+](=O)[O-])ccc1Cl`, inactive: -10.1%.
With `CN1[C@@H]2CC[C@H]1CC(OC(=O)C(O)(c1ccccc1)c1ccccc1)C2` (some centres undefined), the inhibition was inactive: 3.63%.
To `CCN(CC)CC(C)C(C)OC(=O)C(O)(c1ccccc1)c1ccccc1` (centres undefined) belongs inactive: -5.76%; to `COc1cc(SC)ccc1C(=O)NCC1(N(C)C)CCCCC1`, inactive: 6.97%.
To `CC(C)N1C(=O)CC2(CCN(CCOC(=O)C(O)(c3ccccc3)c3ccccc3)CC2)C1=O` belongs inactive: 4.12%; to `Cc1ccc(C(=O)NCC2(N3CCCCC3)CCCCC2)cc1`, inactive: 6.27%; to `Cc1ccccc1C(=O)NCC1(N2CCCCC2)CCCCC1`, inactive: -1.5%.
The figure for `CN(C)c1ccc(C(=O)NCC2(N(C)C)CCCCC2)cc1` is inactive: 3.48%.
As to `CN(C)C1CCCC1OC(=O)C(O)(c1ccccc1)c1ccccc1` (centres undefined), the inhibition was inactive: 3.69%.
To `C=CCN1CCN(CCOC(=O)C(O)(c2ccccc2)c2ccccc2)CC1` belongs inactive: 2.63%; to `O=C(NCC1(N2CCCCC2)CCCCC1)c1cc(F)c(F)cc1Cl`, inactive: 3.19%; to `COc1ccc(C(=O)NCC2(N(C)C)CCCCC2)cc1`, inactive: 1.62%.
The figure for `CCN1CCCC(OC(=O)C2(O)c3ccccc3C=Cc3ccccc32)C1` (centres undefined) is inactive: 8.44%; for `Cc1cc(C(=O)NCC2(N3CCCCC3)CCCCC2)ccc1[N+](=O)[O-]` it is inactive: 5.4%; for `O=C(NCC1(N2CCCCC2)CCCCC1)c1cccc(Br)c1` it is inactive: 0.15%.
